Values of other authors as cited in PMC3439991, “Reversible Crystallization of Argatroban after Subcutaneous Application in Pigs” (Thrombosis, 2012).

Molecular target: thrombin
Parameters: method as in PMID 9469622, PMID 11994559
Details: catalytic site of thrombin; cited from earlier work

CC1CNc2c(cccc2S(=O)(=O)N[C@@H](CCCNC(=N)N)C(=O)N2CC[C@@H](C)C[C@@H]2C(=O)O)C1 (stereo partly shown) [Argatroban]
Ki: 39 nM
